{"sequences": {"note": "Amino acid sequences for entries named in this document (tags omitted). A change or cut given only in a name is not applied to a line headed by its entry.", "UniProt P02675": "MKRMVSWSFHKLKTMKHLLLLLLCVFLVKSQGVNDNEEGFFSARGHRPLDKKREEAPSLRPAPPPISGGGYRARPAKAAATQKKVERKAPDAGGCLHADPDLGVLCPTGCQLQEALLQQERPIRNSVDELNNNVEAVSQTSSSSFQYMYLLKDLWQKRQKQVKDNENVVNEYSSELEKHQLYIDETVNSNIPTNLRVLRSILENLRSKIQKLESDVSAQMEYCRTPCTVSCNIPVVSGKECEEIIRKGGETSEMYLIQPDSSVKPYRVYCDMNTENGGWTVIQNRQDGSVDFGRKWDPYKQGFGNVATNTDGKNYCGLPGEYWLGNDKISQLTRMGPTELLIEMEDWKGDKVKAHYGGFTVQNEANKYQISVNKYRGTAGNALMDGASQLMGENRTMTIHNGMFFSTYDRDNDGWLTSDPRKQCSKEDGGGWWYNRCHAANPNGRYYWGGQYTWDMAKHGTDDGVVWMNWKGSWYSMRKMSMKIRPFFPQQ"}, "source": "PubChem BioAssay AID720633", "about": "(The Scripps Research Institute Molecular Screening Center, 2013)", "biological_target": "Fibrinogen beta chain (Homo sapiens) (UniProt P02675)", "assay": "DD(E) binders in alternate-peptide displacement assay, confirmation, counter-screen for fibrin DD(E)-Tn7 binding project, biochemical, fluorescence polarization, human fibrin (AID 720633);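 further: 0% = median of compound sample wells and 100% = excess unlabeled Aha-Tn7 peptide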", "conditions": "TRITC-Tn7 probe displacement, at 8.3 µM, hits give high values", "note": "The list shows a part of the results, in another mix than the full data. Active and inactive are the calls of the source.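 How the source made its calls: active means inhibition above the cutoff, the mean of compounds lying between the control bounds plus 3 SD of those compounds (cut at about 17% in these data); inactive means the rest.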", "data": [{"smiles": "Nc1cccc2c([As](=O)(O)O)cccc12", "values": [{"measurement": "inhibition", "result": "inactive: 15%"}]}]}
